{"source": "patent US20250127801A1", "about": "“BRIDGED TRICYCLIC CARBAMOYLPYRIDONE COMPOUNDS AND USES THEREOF” (priority 2023, published 2025)", "experiment": "Thermodynamic solubility assay", "conditions": "24-hour incubation, ambient temperature (22.3-23.8° C.), HPLC-UV 280 nm"}
{"smiles": "CC1=NO[C@@]2(CC[C@H](C)N3C[C@H]2n2cc(C(=O)NCc4ccc(F)cc4F)c(=O)c(OC(=O)N(C)C[C@@H]4CCCN4C(=O)OCOP(=O)(O)O)c2C3=O)C1", "values": [{"measurement": "Thermodynamic FaSSIF Solubility @ 24 h", "result": 4630, "unit": "µg/mL"}]}
